Data taken from patent US11098113B2, “Immunoglobulin single variable domains directed against macrophage migration inhibitory factor” (VIB VZW, priority 2016, dated 2021).

T1: rhMIF (recombinant human MIF) (Homo sapiens, UniProt P14174)
T1 construct: recombinant human MIF^2-115 (rhMIF, R&D Systems); purchased R&D systems
T1 sequence (P14174 2-115): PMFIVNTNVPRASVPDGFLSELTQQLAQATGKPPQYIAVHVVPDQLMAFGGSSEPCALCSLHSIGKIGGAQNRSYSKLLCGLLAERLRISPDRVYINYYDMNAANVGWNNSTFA


Legend:
[1] = target: T1, rhMIF (recombinant human MIF); experiment: Surface plasmon resonance, binding to human MIF; conditions: SPR, 1:1 Langmuir model
Protocol: (§1) Surface plasmon resonance (SPR) experiments were performed on a BIAcore T200 system (GE Healthcare). Recombinant mouse MIF (rmMIF) or rhMIF (R&D systems) was immobilized on a CM5 chip (GE Healthcare). Briefly, the carboxylated dextran matrix was activated by injection of 0.2 M N-ethyl-N′-(3-diethylaminopropyl) carbodiimide (EDC) and 0.05 M N-hydroxysuccinimide (NHS) at a flow rate of 5 μl/min for 7 min. A rmMIF solution of 5 μg/ml prepared in coupling buffer (50 mM sodium acetate pH 4.0) was subsequently injected until 200 R.U. was immobilised. Next, the surface immobilisation was blocked by injection of 1 M ethanolamine hydrochloride for 7 min. As a reference, the surface in another flow cell was used and treated only with EDC, NHS, and ethanolamine. Data for the rmMIF-ISVD interaction were collected in the format of a kinetic titration (27). Sensorgrams for the anti-mMIF ISVDs/ISVD-constructs were collected at five different concentrations (½ serial dilution starting from 100, 150, 200 or 750 nM) plus a 0 concentration (injection of running buffer, i.e. HBS [10 mM Hepes (pH 7.5), 150 mM NaCl, 3.5 mM EDTA, 0.005% (v/v) Tween-20]) at a flow rate of 30 μl/min and a data collection rate of 10 Hz. Analyte injections were performed with association phases of 180 s and a dissociation phase of 600 s. This was followed by 5 pulses of 15 μl regeneration buffer (HBS+100 mM NaOH). Prior to data analysis, reference and zero concentration data were subtracted from the sensorgrams. The data were analyzed with a 1:1 Langmuir binding model (27). Data for the rhMIF-ISVD interaction were collected as described elsewhere (28) and analyzed with a 1:1 Langmuir binding model.

[2] = target: T2, recombinant mouse MIF (rmMIF) (Mus musculus, UniProt P34884); experiment: Surface plasmon resonance, binding to immobilized mouse MIF; conditions: SPR, mouse MIF immobilised on CM5 chip, 1:1 Langmuir model
T2 construct: purchased R&D systems
Protocol: as §1

[3] = test system: LPS stimulated RAW264.7 macrophages; experiment: TNF production by LPS stimulated RAW264.7 macrophages; type: cell-based, murine; conditions: RAW264.7, LPS, ISVD at a concentration of 0.5-1.67 μM
Protocol: FIG. 1: Inhibition of MIF's biological activities by anti-MIF ISVDs (indicated as “Nb”). […] Briefly, cells were treated with 500 nM of each anti-MIF ISVD and an irrelevant ISVD was used as a negative control. After 18 hours of incubation, cell culture supernatants were collected for the determination of TNF concentration. Data is shown as the mean±SEM. Statistical analysis was performed by comparing TNF levels of ISVD-treated LPS-stimulated cells to levels of untreated LPS-stimulated cells. The dotted line represents TNF levels (cut-off level) of mice stimulated with LPS alone. D) Inhibition of MIF D-dopachrome tautomerase activity by anti-MIF ISVDs. ISO-1 was used as positive control. The activity was determined by the semi-continuous reduction in signal (tautomerization) measured at OD450nm in the presence and absence of anti-MIF ISVDs. The % activity was expressed in relationship to the tautomerase activity of rmMIF alone. The dotted line represents 100% activity (i.e. when only MIF was used). […]
Experiments were performed using either the human monocytic cell line THP-1 (ATCC), the murine macrophage cell line RAW264.7 (ATCC) or human peripheral blood monocytic cells (PBMC's) ex vivo peritoneal exudates cells (PECs). […] Finally, the cells were resuspended in ME medium, counted and brought at a concentration of 5*10^5/ml (stock solution). […]

Molecule | Kon [1] | Kon [2] | TNF reduction [3] [%]
D2: anti-MIF immunoglobulin single variable domain, Family III, SEQ ID NO: 7 (protein, Nanobody Sequence) VHH: EVQLVESGGGLVQDGGSLRLSCAASGRTASIHTMGWFRQAPGQERGFVGNIGWNYGLTLYADSVKGRFTISRDNAKNTVYLQMNNLKPEDTAVYYCAARIGTTPYDYWGQGTQVTVSS | 0.75 10^5M^−1s^−1 | 1.51 10^5M^−1s^−1 | 
A2: anti-MIF immunoglobulin single variable domain, Family III, SEQ ID NO: 6 (protein, Nanobody Sequence) VHH: EVQLVESGGGLVQDGGSLRLSCAASGRTASIQVMGWFRQAPGKEREFVGNIGWNYGLTLYADPVKGRFTISRDNAKNTVYLQMNNLKPEDTAVYYCAARIGTITYDYWGQGTQVTVSS | 3.11 10^5M^−1s^−1 | 1.43 10^5M^−1s^−1 | 
D4: anti-MIF immunoglobulin single variable domain, Family III, SEQ ID NO: 8 (protein, Nanobody Sequence) VHH: KVQLVESGGGLVQDGGSLRLSCAASGRTASIQVMGWFRQAPGKEREFVGNIGWNYGLTLYPDSVKGRFTISRDNAKNTVYLQMNNLKPEDTAVYYCAARIGTTTYDYWGQGTQVTVSS | 0.44 10^5M^−1s^−1 | 0.99 10^5M^−1s^−1 | 
H5: anti-MIF immunoglobulin single variable domain, Family IV, SEQ ID NO: 5 (protein, Nanobody Sequence) VHH: EVQLVESGGGLVQPGGSLRLSCVASGFTFRTYAMSWVRQAPGKGSEWVSTINNGGGVTGYADSVEGRFTISRDNAKNTLYLQMNSLKPEDTAVYYCAKGTSRGQGTQVTVSS | 0.17 10^5M^−1s^−1 | 1.16 10^5M^−1s^−1 | 
B5: anti-MIF immunoglobulin single variable domain, Family I, SEQ ID NO: 11 (protein, Nanobody Sequence) VHH: EVQLVESGGGLVQAGGSLRLSCAASGRSFSNYIMGWFRQAPGKEREFVANISWNYGTTFYADSVKGRFTISGDSAKNTVYLQMTSLKPEDTAVYYCAARPVRGGRNFDYWGQGTQVTVSS | 0.41 10^5M^−1s^−1 | 1.42 10^5M^−1s^−1 | 

Now from value to molecule, other results behind:

Kon [1] | Kon [2] | Molecule | TNF reduction [3] [%]
 | 0.19 10^5M^−1s^−1 | F10: anti-MIF immunoglobulin single variable domain, Family III, SEQ ID NO: 9 (protein, Nanobody Sequence) VHH: EVQLVESGGGLVQDGGSLRLSCAASGRTASIQVMGWFRQAPGKEREFVGNIGWNYGLTLYPDSVKGRFTISRGNAKNAVYLQMNNLKPEDTAVYYCAARIGTTTYDYWGQGTQVTVSS | 
0.18 10^5M^−1s^−1 | 0.59 10^5M^−1s^−1 | D12: anti-MIF immunoglobulin single variable domain, Family VI, SEQ ID NO: 2 (protein, Nanobody Sequence) VHH: EVQLVESGGGLVQAGGSLRLSCAASGRTISSYIVGWFRQAPGKEREFVANIGWSGSMPLYADSVKGRFTIFRDNAKNTVYLEMNKLKPEDTAVYYCAARGAGQLTNDYWGQGTQVTVSS | 
0.38 10^5M^−1s^−1 | 1.63 10^5M^−1s^−1 | C10: anti-MIF immunoglobulin single variable domain, Family II, SEQ ID NO: 10 (protein, Nanobody Sequence) VHH: EVQLVESGGGLVQAGGSLRLSCAASGRTSSIVAIGWFRQAPGKEREFVSNIGWKFGSTVYVDSVKGRFTISKDNAKNTVYLQMNSLKPEDTAVYRCAARSDGRVYDSWGQGTQVTVSS | 
 | 3.51 10^5M^−1s^−1 | E10-E10: bivalent ISVD E10 construct, SEQ ID NO: 120 (protein, Fusion protein) EVQLVESGGGSVQAGDSLRLSCAASGRTLSNSIMGWFRQAPGKEREFVANINWSGTSRLYADSVKGRFTISRDNTKSTVYLQMNSLKPEDTAIYYCAARSSTMSATDYWGQGTQVTVSSGGGGSGGGSEVQLVESGGGSVQAGDSLRLSCAASGRTLSNSIMGWFRQAPGKEREFVANINWSGTSRLYADSVKGRFTISRDNTKSTVYLQMNSLKPEDTAIYYCAARSSTMSATDYWGQGTQVTVSS | 
0.78 10^5M^−1s^−1 | 1.63 10^5M^−1s^−1 | E5: anti-MIF immunoglobulin single variable domain, Family V, SEQ ID NO: 3 (protein, Nanobody Sequence) VHH: EVQLVESGGGLVHAGGSLRLSCAASGRTFSSYFMGWFRQAPGKAREFVANINFSGGTTVYASSVKGRFTISRDNSKNTVYLQMNSVKPEDTAVYYCVARGLTQDYDYWGQGTQVTVSS | 50
0.32 10^5M^−1s^−1 | 0.70 10^5M^−1s^−1 | H9: anti-MIF immunoglobulin single variable domain, Family V, SEQ ID NO: 4 (protein, Nanobody Sequence) VHH: EVQLVESGGGLVHAGGSLRLSCAASGRTSSTYFMGWFRQAPGKAREFVANINFSGGTTVYASSVKGRFTISRDNSKNTVYLQLNSVKPEDTAVYYCSARGLNQEYDFWGQGTQVTVSS | 
